Experimental data from PubChem BioAssay AID1229 (Sanford-Burnham Center for Chemical Genomics, 2008).
Some of the results follow. Calls of active or inactive are those of the source.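 The calls were made as follows: active = diaphorase activity raised at least twofold by the compound at 20 µM; inactive = activation factor below 2.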

test: compounds boosting diaphorase resazurin reduction – biochemical, uHTS, resorufin fluorescence, counter-screen for diaphorase-coupled primary assays, primary screen (AID 1229); conditions: Diaphorase/resazurin coupled assay, 16 min, at 20 µM; active compounds read high, 1 = vehicle wells, 0 = NADH-free wells
In short: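 Test system: Clostridium kluyveri diaphorase, purified enzyme. Buffer or medium: 50 mM HEPES pH 7.4 buffer plus MgCl2 and Tween 20. Also added: 0.114 mM NADH and 0.1 mM resazurin, final amounts. Dosing: compound 20 µM once, DMSO 1%. Schedule: 16 min enzyme reaction, ambient temperature. Detection: fluorescence of resorufin, 544 nm excitation, 590 nm emission.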

SMILES | activation factor
Cc1c(NP(C)(=O)Oc2ccc(C(C)C)cc2)c(=O)n(-c2ccccc2)n1C (configuration not stated) | inactive: 1.1
CCc1ccc(OP(C)(=O)O)cc1 | inactive: 1
COc1ccccc1OP(C)(=O)Nc1ccc(C)cc1C (configuration not stated) | inactive
CP(=O)(Nc1ccccn1)Oc1ccccc1 (configuration not stated) | inactive
CN(C)CCOC(=O)C(O)(c1ccccc1)C1CCCC1 (configuration not stated) | inactive: 1
COc1ccc(OP(C)(=O)Nc2ccccn2)cc1 (configuration not stated) | inactive
COc1ccccc1OP(=O)(Nc1ccc(C)cn1)Oc1ccccc1OC | inactive
Cc1nc2ccc3ccccc3c2o1.O=[N+]([O-])c1cc([N+](=O)[O-])c(O)c([N+](=O)[O-])c1 | inactive: 0.5
CP(=O)(OCCOc1ccccc1)OCCOc1ccccc1 | inactive: 1
CP(=O)(Nc1ccc(Cl)cc1Cl)Oc1ccccc1 (configuration not stated) | inactive
Cc1cc(C)cc(OP(C)(=O)Nc2cccc(C(F)(F)F)c2)c1 (configuration not stated) | inactive: 0.8
COc1ccc(OP(C)(=O)Nc2ccccc2Br)cc1 (configuration not stated) | inactive
COc1ccccc1OP(C)(=O)Nc1ccc(C)c(C)c1 (configuration not stated) | inactive
CCOP(=O)(Nc1ccccc1)OCC | inactive
CP(=O)(OC12CC3CC(CC(C3)C1)C2)OC12CC3CC(CC(C3)C1)C2 | inactive: 0.8
CCOC(=O)c1ccc(NP(C)(=O)Oc2ccc(Cl)cc2)cc1 (configuration not stated) | inactive: 1
CP(=O)(Nc1ccc(Cl)cc1)Oc1ccc(F)cc1 (configuration not stated) | inactive
CC(C)(C)c1ccc(OP(C)(=O)O)cc1 | inactive
COc1ccccc1OP(C)(=O)Nc1ccccc1Br (configuration not stated) | inactive
CN(C)C(=O)c1c([N+](=O)[O-])cc([N+](=O)[O-])cc1[N+](=O)[O-] | inactive
COc1ccc(OP(C)(=O)Nc2ccc(Br)cc2)cc1 (configuration not stated) | inactive: 0.8
CCN(CC)CC(O)COC(=O)C(O)(c1ccccc1)C1CCCCC1 (configuration not stated) | inactive
CCc1ccc(OP(C)(=O)Nc2cccnc2)cc1 (configuration not stated) | inactive
Cc1ccc(NP(=O)(Oc2ccccc2)Oc2ccccc2)nc1 | inactive
CP(=O)(Oc1ccccc1)N1CCOC1=O (configuration not stated) | inactive: 1
COc1ccccc1OP(C)(=O)Nc1c(C)n(C)n(-c2ccccc2)c1=O (configuration not stated) | inactive
CC(=O)N1C2C3N(C(C)=O)C1C1N(C(C)=O)C(C(N1C(C)=O)N3C(C)=O)N2C(C)=O | inactive
